Laboratory results as given in PubChem BioAssay AID720509 (The Scripps Research Institute Molecular Screening Center, 2013).
The entries are a selection whose mix differs from that of the whole data set. Calls of active or inactive are those of the source.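 How the source made its calls: active means inhibition above a per-campaign cutoff: mean of compounds within control limits plus 3 SD (cut at about 15% in these data); inactive means the rest.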

The chains behind the UniProt entries cited, without tags or fusion partners. Where a name states a change or a piece, a line headed by the entry shows the natural chain unless it says otherwise.
UniProt P02675: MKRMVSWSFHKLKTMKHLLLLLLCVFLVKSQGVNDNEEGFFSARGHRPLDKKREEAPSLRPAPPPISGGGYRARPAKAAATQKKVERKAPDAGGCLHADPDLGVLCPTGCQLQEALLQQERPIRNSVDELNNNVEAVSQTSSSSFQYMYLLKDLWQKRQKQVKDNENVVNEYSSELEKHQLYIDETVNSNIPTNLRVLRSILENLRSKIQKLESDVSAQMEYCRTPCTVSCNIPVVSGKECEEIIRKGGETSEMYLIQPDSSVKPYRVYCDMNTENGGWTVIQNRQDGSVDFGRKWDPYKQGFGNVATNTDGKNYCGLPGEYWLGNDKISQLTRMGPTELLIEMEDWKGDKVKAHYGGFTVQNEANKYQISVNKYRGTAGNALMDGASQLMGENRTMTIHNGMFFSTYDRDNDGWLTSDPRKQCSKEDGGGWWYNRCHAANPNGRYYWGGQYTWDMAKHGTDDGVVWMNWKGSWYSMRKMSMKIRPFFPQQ

biological target: Fibrinogen beta chain (Homo sapiens) (UniProt P02675); experiment: inhibitors of Tn6 peptide binding to fibrin DD(E), primary screen, biochemical, fluorescence polarization, human fibrin, Tn6 probe (AID 720509); conditions: Fibrin DD(E) TRITC-Tn6 fluorescence polarization displacement; at 8.3 µM; hits give high values;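 further: 0% = median of all compound wells on the plate and 100% = blocking peptide control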

| Compound | inhibition |
| --- | --- |
| C[N+]1=C2C=CC=CC=C2SC12C([N+](=O)[O-])=CC([N+](=O)[O-])=C[C-]2[N+](=O)[O-] (configuration not stated) | inactive: -5.05% |
| Nc1ccc([As](=O)(O)c2ccc(N)cc2)cc1 | inactive: 10.8% |
| CCN(/C(=N/P(=O)(N1CCOCC1)N1CCOCC1)N1CCOCC1)c1ccc(OC)cc1 | inactive: -3.18% |
| CN(C)C(=O)OCCc1n(C)cc[n+]1C | inactive: 2.82% |
| CC(C)c1nc(Nc2ccccc2)n(P(=O)(N(C)C)N(C)C)n1 | inactive: -0.82% |
| CC(C)=N/N=C(\N)N[N+](=O)[O-] | inactive: -4.03% |
| CC1CCN(C(=O)Oc2c(Cl)cc(Cl)c3cccnc23)CC1 | inactive: -0.59% |
| c1cc(-c2nn[nH]n2)ccc1-c1nn[nH]n1 | inactive: 0.24% |
| COc1ccc(C2=NCC(CBr)S2)cc1 (configuration not stated) | inactive: 6.63% |
| O=[N+]([O-])c1cccc2n[nH]nc12 | inactive: -4.56% |
| CC(=O)N1C2C3N(C(C)=O)C1C1N(C(C)=O)C(C(N1C(C)=O)N3C(C)=O)N2C(C)=O | inactive: -4.84% |
| CCc1nc2c(n1)c1c(non1O)c1c2no[n+]1[O-] | inactive: 3.21% |
| O=[N+]([O-])c1cc([N+](=O)[O-])c(CCNc2ccccc2)c([N+](=O)[O-])c1 | inactive: -8.22% |
| Cc1ccc(NP(=O)(Oc2ccccc2)Oc2ccccc2)nc1 | inactive: 3.34% |
| CC(C)(C)C(=O)NC(Sc1ccncn1)C(Cl)(Cl)Cl (configuration not stated) | inactive: -8.82% |
| O=[N+]([O-])c1ncn(CCn2ncnc2[N+](=O)[O-])n1 | inactive: 12.9% |
| COC(=O)C1(C)COP(=O)(Nc2ccccc2)OC1 (configuration not stated) | inactive: 2.45% |
| O=[N+]([O-])c1cccc(NC2=NCC(CBr)S2)c1 (configuration not stated) | inactive: -3.91% |
| O=C(O)CNc1ccc([As](=O)(O)O)cc1 | inactive: -8.31% |
| O=P1(N(CCCl)CCCl)OCCCS1 (configuration not stated) | inactive: 2.27% |
| O=C(Nc1cc([As](=O)(O)O)ccc1O)c1ccccc1 | inactive: 9.48% |
| CCN(N=Nc1nonc1N)c1nonc1N | inactive: 4.15% |
| CN(C(=O)Cc1ccccc1)C1CC[C@@]2(CCCO2)C[C@@H]1N1CCCC1 (some centres not stated) | inactive: 1.07% |
| Nc1cccc2ccc([As](=O)(O)O)cc12 | active: 21.3% |
| CCCC1OP(N)(=O)OCC1CC (configuration not stated) | inactive: 1.61% |
| CC(=O)Nc1ccc([As](=O)(O)O)cc1 | inactive: 5.49% |

| Compound | inhibition |
| --- | --- |
| O=C(O)c1ccccc1[As](=O)(O)O | inactive: 9.24% |
| O=P(Nc1nc2ccc(Cl)cc2s1)(c1ccccc1)c1ccccc1 | inactive: -7.21% |
| CN(C)P(=O)(N(C)C)n1c(Nc2ccccc2)nnc1-c1ccccc1 | inactive: 5.93% |
| Cc1ccc(NP(=O)(Oc2ccccc2F)Oc2ccccc2F)nc1 | inactive: -10.8% |
| CN(C(=O)Cc1ccc(Cl)c(Cl)c1)[C@H]1CCCC[C@@H]1N1CCCC1 | inactive: -2.15% |
| Cc1cc(SC(NC(=O)c2ccc(F)cc2)C(Cl)(Cl)Cl)ncn1 (configuration not stated) | inactive: -5.15% |
| CCOP(=O)(Nc1ccccc1)OCC | inactive: -8.87% |
| CCn1c(=O)n(C2CCN(CC3CCCCCCC3)C[C@H]2CO)c2ccccc21 (some centres not stated) | inactive: -5.25% |
| Nc1cc(N)c2nonc2c1[N+](=O)[O-] | inactive: 2.62% |
| CC(C)CC(=O)NC(Sc1ccc(Cl)cc1)C(Cl)(Cl)Cl (configuration not stated) | inactive: -0.58% |
| O=C(NC(Sc1ccncn1)C(Cl)(Cl)Cl)c1ccccc1 (configuration not stated) | inactive: 7.31% |
| Oc1ccccc1CNc1ccccn1 | inactive: -0.68% |
| NC(=O)c1cc([N+](=O)[O-])cc([N+](=O)[O-])c1N | inactive: -0.08% |
| Cc1ccc(N/C(=N/P(=O)(N2CCOCC2)N2CCOCC2)N2CCOCC2)cc1 | inactive: 2.23% |
| CN(C(=O)Cc1ccc(Cl)c(Cl)c1)[C@H]1CCCC[C@H]1N1CCCC1 | inactive: -7.85% |
| Cc1ccc(OP(=O)(Nc2nccs2)Oc2ccc(C)cc2)cc1 | inactive: 2.15% |
| COc1ccccc1OP(=O)(Nc1ccc(C)cn1)Oc1ccccc1OC | inactive: -4.54% |
| CN1CCCC(OC(=O)C(c2ccccc2)c2ccccc2)C1 (configuration not stated) | inactive: 9.68% |
| Clc1ccc(Cl)c(NC2=NCC(CBr)S2)c1 (configuration not stated) | inactive: -0.21% |
| COC(=O)C1(C)COP(=O)(NCc2ccccc2)OC1 (configuration not stated) | inactive: 4.07% |
| CC(=O)c1ccc(N2CC2c2ccncc2)cc1 (configuration not stated) | inactive: 4.48% |
| N#C/C(=C\c1ccc(N(CCBr)CCBr)cc1)C(N)=O | inactive: 0.02% |
| C[C@H]1OP(=O)(Oc2ccccc2)C[C@@H]2O[C@@H]21 (some centres not stated) | inactive: 4.7% |
| C[C@@H]1C=CCP(=O)(Oc2ccccc2)O1 (some centres not stated) | inactive: -3.13% |
| Cc1ccccc1CN(C)C(=O)COC(=O)C(O)(c1ccccc1)c1ccccc1 | inactive: -3.59% |
| CC(=O)Nc1ccc(Oc2c([N+](=O)[O-])cc([N+](=O)[O-])cc2[N+](=O)[O-])cc1 | inactive: 3.18% |

| Compound | inhibition |
| --- | --- |
| CC(=O)Nc1ccc([As](=O)(O)O)c(O)c1 | inactive: -1.62% |
| CCOc1ccc(C2=NCC(CBr)S2)cc1 (configuration not stated) | inactive: -0.06% |
| O=P1(Nc2nc3ccc(Cl)cc3s2)COc2ccccc2O1 (configuration not stated) | inactive: -1.5% |
| CCc1cc(O)c([N+](=O)[O-])c(C)c1[N+](=O)[O-] | inactive: 10.2% |
| CC(C)(C)C(=O)NC(Sc1ccccc1)C(Cl)(Cl)Cl (configuration not stated) | inactive: -0.78% |
| CC(=O)NC(SC(=S)N(CC(C)C)CC(C)C)C(Cl)(Cl)Cl (configuration not stated) | inactive: -4.26% |
| Cc1ccc(OP(=O)(Nc2ccccn2)Oc2ccc(C)cc2)cc1 | inactive: 6.55% |
| COC(=O)c1cc2c(s1)N=C(c1ccccc1)N(C)P2(=O)N1CCOCC1 (configuration not stated) | inactive: -7.09% |
| CCC(=O)N1C2C3N(C(=O)CC)C1C1N(C(=O)CC)C(C(N1C(=O)CC)N3C(=O)CC)N2C(=O)CC | inactive: -4.69% |
| O=C(OC1CN2CCC1CC2)c1ccccc1 (configuration not stated) | inactive: -4.91% |
| O=c1c2cc([N+](=O)[O-])ccc2[nH]c2c([N+](=O)[O-])cc([N+](=O)[O-])cc12 | inactive: 0.91% |
| CN(C)C(=O)Oc1noc2ccccc12 | inactive: -7.44% |
| CC(NC(=O)COC(=O)C(O)(c1ccccc1)c1ccccc1)c1ccccc1 (configuration not stated) | inactive: -1.38% |
| Cc1ccccc1OP(=O)(Nc1ccccn1)Oc1ccccc1C | inactive: -1.43% |
| CCNC(=S)/N=C(\N)N[N+](=O)[O-] | inactive: -2.81% |
| O=C(NC1CCS(=O)(=O)C1)NP(=S)(Oc1ccccc1)Oc1ccccc1 (configuration not stated) | inactive: -2.63% |
| Cc1ccc(NP(=O)(Oc2cccc(C)c2)Oc2cccc(C)c2)nc1 | inactive: 2.98% |
| c1ccc(-c2nn[nH]n2)c(-c2nn[nH]n2)c1 | inactive: 1.18% |
| O=P1(N(CCCl)CCCl)OCCC2CCCCN21 (configuration not stated) | inactive: -0.63% |
| CC(=O)NC(SC(=S)N(C)C)C(Cl)(Cl)Cl (configuration not stated) | inactive: 0.34% |
| O=[N+]([O-])c1ncn(CCn2cnc([N+](=O)[O-])n2)n1 | inactive: -3.3% |
| O=[As](O)(c1ccccc1)c1ccc(O)cc1 | inactive: -1.85% |
| C(Cc1nn[nH]n1)Cc1nn[nH]n1 | inactive: 3.49% |
| Nc1ccc([As](=O)(O)c2ccc([N+](=O)[O-])cc2)cc1 | inactive: -1.04% |
| C/C(N)=N\P(=O)(OCc1ccccc1)OCc1ccccc1 | inactive: 4.92% |
| O=C(OC1CN2CCC1CC2)c1cccc(Cl)c1 (configuration not stated) | inactive: -8.51% |

| Compound | inhibition |
| --- | --- |
| COc1ccc(N)c([N+](=O)[O-])c1[N+](=O)[O-] | inactive: 2.58% |
| Nc1ccc(CCCCOc2ccccc2)cc1 | inactive: 0.34% |
| O=P(Nc1ccccn1)(c1ccc(Br)cc1)c1ccc(Br)cc1 | inactive: -1.29% |
| CN(C)C1(CNC(=O)c2ccc(Cl)c(S(N)(=O)=O)c2)CCCCC1 | inactive: 6.52% |
| C[C@H]1OP(=O)(Oc2ccccc2)[C@H](O)[C@H](O)[C@H]1N=[N+]=[N-] (some centres not stated) | inactive: -3% |
| O=P(Nc1nc2ccccc2s1)(c1ccccc1)c1ccccc1 | inactive: -3.1% |
| CC(C)C(=O)NC(Sc1ccccc1)C(Cl)(Cl)Cl (configuration not stated) | inactive: 2.27% |
| O=P(Nc1nccs1)(c1ccccc1)c1ccccc1 | inactive: -5.74% |
| c1nnnn1CCn1cnnn1 | inactive: 1.44% |
| COc1ccccc1CNC(=O)COC(=O)C(O)(c1ccccc1)c1ccccc1 | inactive: -2.59% |
| CC1(CBr)Cn2c(nc3ccccc3c2=O)S1 (configuration not stated) | inactive: 1.74% |
| CN(C(=O)Cc1ccc(Cl)c(Cl)c1)C1CCCC[C@@H]1N1CCCC1 (some centres not stated) | inactive: -5.19% |
| CC(C)/C=N\N=C(\N)N[N+](=O)[O-] | inactive: -2.45% |
| CN(C(=O)Cc1ccc(Cl)c(Cl)c1)[C@@H]1CCCC[C@H]1N1CCCC1 | inactive: -4.69% |
| CCOP(=O)(Nc1ccc(C)cn1)OCC | inactive: 1.01% |
| CN(CCCl)Cc1cc(Cl)c(NC2=NCCN2)c(Cl)c1 | inactive: 2.79% |
| CCOP(=O)(NC(=NC(C)c1ccccc1)NC(C)c1ccccc1)OCC (configuration not stated) | inactive: 6.79% |
| O=P1(Nc2ccccn2)COc2ccccc2OC1 | inactive: 1.56% |
| CCC1=CC2Cc3nc4ccc(Cl)cc4c(N)c3C(C1)C2 (configuration not stated) | inactive: 0.9% |
| CC(C)(C)C(=O)NC(Sc1ncccn1)C(Cl)(Cl)Cl (configuration not stated) | inactive: -5.62% |
| O=P1(N(CCCl)CCCl)NCCC(C(F)(F)F)O1 (configuration not stated) | inactive: 3.52% |
| Clc1n[nH]nc1-c1nn[nH][15n]1 | inactive: 1.57% |
| O=P1(Nc2ncccn2)COc2ccccc2OC1 | inactive: -1.83% |
| Cc1ccc(S(=O)(=O)N(CCCN)CCCc2c(C)nc(N)[nH]c2=O)cc1 | inactive: -3.39% |
